Consider 3 substances from US9371497B2, “THPE ethers” (Dow Global Technologies LLC, priority 2012, dated 2016).

For this data set the following is noted: 0.1 grams THPE alkyl ether with 0.9 grams solvent; warmed to 60° C., cooled, freezer at −10° C., checked daily for crystallization; letters name the solvent mixtures.
On to “4,4′,4″-(Ethane-1,1,1-triyl)tris(hexyloxy)benzene [n-C6H13]”, for which the “Solubility @ −10° C./7 Days” value is “A, B, C, D”.

In the case of “4,4′,4″-(Ethane-1,1,1-triyl)tris(butoxy)benzene [n-C4H9]”, the “Solubility @ −10° C./7 Days” value is recorded as “A, B, C, D”. Next, “4,4′,4″-(Ethane-1,1,1-triyl)tris(pentyloxy)benzene [n-C5H11]”: “A, B, C, D”.
